Patent US8685443B2, “Sequestering subunit and related compositions and methods” (Alpharma Pharmaceuticals LLC, priority 2002, dated 2014)

Conditions: in comparison to a 15 mg dose of hydrocodone

In the case of `CN1CC[C@]23c4c5ccc(O)c4O[C@H]2C(=O)CC[C@H]3[C@H]1C5` [Hydromorphone], the “Calculated Dose (equianalgesic dose)” value is reported as 3.375 mg.
